The entries are a selection whose mix differs from that of the whole data set. Active and inactive are the calls of the source.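 How the source made its calls: active means activation above its plate's cutoff, the mean activation of tested wells plus 3 SD (cut at about 7.9% in these data); inactive means the rest.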
Assay: BRM-dependent MMTV reporter reactivation – cell-based, luminescence, triplicate, confirmation (AID 652260)
Settings: MG213 cells, MMTV-luciferase with dexamethasone, overnight, at 9.1 µM, active compounds read high, DMSO wells 0%, reference activator 100%, MG213 cells expressing E1A, Rb sequestered
Outline: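 System: MG213 cells (E1A-transduced) carrying MMTV-luciferase reporter; buffer or medium: 2.5% FBS medium with dexamethasone; probe or stimulus: 0.1 µM dexamethasone stimulus; compound: 9.1 µM single dose; timing: compound exposure 24 h at 37 °C after 1-day dexamethasone priming; signal: luciferase luminescence (OneGlo); control set: DMSO wells as low control, reference activator compound as high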

| Compound | activation |
| --- | --- |
| O=C(O)c1cccc(Nc2c([N+](=O)[O-])cc([N+](=O)[O-])cc2[N+](=O)[O-])c1 | inactive: -2.3% |
| CN(C)C(=O)c1c([N+](=O)[O-])cc([N+](=O)[O-])cc1[N+](=O)[O-] | inactive: 6.43% |

Source: PubChem BioAssay AID652260 (The Scripps Research Institute Molecular Screening Center, 2013)
